Results: PubChem BioAssay AID504374 (National Center for Advancing Translational Sciences (NCATS), 2011)
This is a selection; strong and weak results do not stand in their true shares. Records with an inconclusive call do not appear. Active and inactive are the calls of the source. Calls come from the whole dose curve; as a rule, active = well fitted inhibition curve with a large enough effect; inconclusive = small, poorly fitted or top-dose-only effect, or effect the other way; inactive = flat fitted curve, though single readings scatter.

The chains behind the UniProt entries cited, without tags or fusion partners.
UniProt Q01196, whole entry, looked up: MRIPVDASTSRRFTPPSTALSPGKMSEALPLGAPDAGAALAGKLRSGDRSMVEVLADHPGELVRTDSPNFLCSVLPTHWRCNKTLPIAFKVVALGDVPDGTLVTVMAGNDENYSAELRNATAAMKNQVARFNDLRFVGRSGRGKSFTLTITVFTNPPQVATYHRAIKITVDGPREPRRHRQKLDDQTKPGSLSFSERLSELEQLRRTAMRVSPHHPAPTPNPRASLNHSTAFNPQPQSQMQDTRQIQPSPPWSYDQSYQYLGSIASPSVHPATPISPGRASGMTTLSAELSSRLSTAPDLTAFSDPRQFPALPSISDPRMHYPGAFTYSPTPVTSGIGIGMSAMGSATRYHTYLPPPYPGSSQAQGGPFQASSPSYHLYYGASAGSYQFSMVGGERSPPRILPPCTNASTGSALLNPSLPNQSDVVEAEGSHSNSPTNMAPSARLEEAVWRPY
UniProt Q13951, whole entry, looked up: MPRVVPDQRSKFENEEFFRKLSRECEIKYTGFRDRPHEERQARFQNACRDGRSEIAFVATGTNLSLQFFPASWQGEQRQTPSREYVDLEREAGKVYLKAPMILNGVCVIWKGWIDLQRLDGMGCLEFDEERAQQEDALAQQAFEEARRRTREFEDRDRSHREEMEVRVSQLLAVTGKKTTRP

Target: Runt-related transcription factor 1 (Homo sapiens) + Core-binding factor subunit beta (Homo sapiens) (UniProt Q01196+Q13951)
Assay: qHTS Assay for Compounds Blocking the Interaction Between CBF-beta and RUNX1 for the Treatment of Acute Myeloid Leukemia: Hit Validation; note: nearly all actives have a fitted effect of over 60% in size
Conditions: AlphaScreen CBFb-His/RUNX1-biotin binding; at 59.8 µM (top of the series)
% is set by controls: 0 for no effect and ±100 for the full control effect.

SMILES | activity, negative = inhibition
O=[N+]([O-])c1ccc(OP2(=O)COCCO2)cc1 (stereo unspecified) | inactive: -9.25%
